US8753841B2, “Enzyme that catalyzes a peptide-forming reaction from a carboxy component and an amine component, microbe producing the same, and a method of producing a dipeptide using the enzyme or microbe” (Ajinomoto Co., Inc., priority 2002, dated 2014)

Tests used:
[1] = Comparison of ability to catalyze peptide formation with known enzymes; type: biochemical; details: 100 mM L-alanine methyl ester hydrochloride, 200 mM L-glutamine, borate buffer pH 9.0, 25° C.
From the text: The peptide-forming ability of the present enzyme was compared with that of known enzymes. Carboxypeptidase Y described in EP 278787A1 and the thiol endopeptidases (ficin, papain, bromelain, and chymopapain) described in EP 359399B1 were used as the known enzymes, and they were used in the form of purified enzymes (manufactured by Sigma). The enzyme uniformly purified in Example 3 was used as a source of the present enzyme of the present invention. […] As has been described above, the present enzyme was verified to have an extremely high peptide production rate unlike any known enzyme in the prior art. Furthermore, the enzyme of the present invention is a dimer having a molecular weight of about 75,000. In contrast, the molecular weight of the carboxypeptidase Y has been reported to be about 61,000, while the molecular weight of thiol endopeptidase has been reported to be about 23,000 to 36,000. Thus, the L-alanyl-L-glutamine production rate of the enzyme of the present invention as compared to those of the carboxypeptidase Y and the thiol endopeptidase is even greater when the rate is expressed per molecular weight than when it is expressed per unit weight as indicated in the examples.

[2] = test system: peptide-forming enzyme from Empedobacter brevis strain FERM BP-8113; experiment: Substrate specificity of enzyme (peptide production from carboxy and amine components); type: biochemical; parameters: key to Formed peptide (mM): +: those peptides for which production was confirmed but which were unable to be quantified due to the absence of a standard; a trace amount; details: 100 mM L-alanine methyl ester hydrochloride, L-amino acid 150 mM, pH 9.0, 25° C., 3 hours
[3] = test system: peptide-forming enzyme from Empedobacter brevis strain FERM BP-8113; experiment: Production of L-alanyl-L-glutamine from L-alanine methyl ester and L-glutamine with the Mono S fraction enzyme; details: 100 mM L-alanine methyl ester hydrochloride, 200 mM L-glutamine, 10 mM EDTA, pH 9.0, 18° C., enzyme-added lot

## Bromelain
[1]
  L-Ala-L-Gln production rate: 0.0062 mM/min

## Chymopapain: thiol endopeptidase described in EP 359399B1, purified enzyme manufactured by Sigma
[1]
  L-Ala-L-Gln production rate: 0.0100 mM/min

## Ficin
[1]
  L-Ala-L-Gln production rate: 0.0096 mM/min

## L-Ala-Gly
[2]
  Formed peptide: 13.7 mM

## L-Ala-L-Ala
[2]
  Formed peptide: 25.4 mM

## L-Ala-L-Ala-L-Gln
[3]
  peptide formed: 1.3 mM

## L-Ala-L-Arg
[2]
  Formed peptide: 88.0 mM

## L-Ala-L-Asn
[2]
  Formed peptide: 65.5 mM

## L-Ala-L-Asp
[2]
  Formed peptide: 2.1 mM

## L-Ala-L-CySH
[2]
  Formed peptide (mM): +

## L-Ala-L-Glu
[2]
  Formed peptide: 42.9 mM

## L-Ala-L-His
[2]
  Formed peptide: 66.9 mM

## L-Ala-L-Ile
[2]
  Formed peptide: 33.9 mM

## L-Ala-L-Leu
[2]
  Formed peptide: 45.3 mM

## L-Ala-L-Lys
[2]
  Formed peptide: 71.8 mM

## L-Ala-L-Met
[2]
  Formed peptide: 83.3 mM

## L-Ala-L-Phe
[2]
  Formed peptide: 74.4 mM

## L-Ala-L-Pro
[2]
  Formed peptide (mM): tr

## L-Ala-L-Ser
[2]
  Formed peptide: 62.5 mM

## L-Ala-L-Thr
[2]
  Formed peptide: 53.9 mM

## L-Ala-L-Trp
[2]
  Formed peptide: 53.9 mM

## L-Ala-L-Tyr
[2]
  Formed peptide: 17.6 mM

## L-Ala-L-Val
[2]
  Formed peptide: 20.8 mM
